Assay results reported in US5677146A, “Human amyloid protein precursor homolog and kunitz-type inhibitor” (Zymogenetics, Inc., priority 1995, dated 1997).

Experiments:
Chymotrypsin = experiment: Protease inhibitory activity assay, chymotrypsin; type: biochemical; conditions: 1 μM inhibitor; chymotrypsin 2.5 nM; MeO-Suc-Arg-Pro-Tyr-pNA 0.6 mM; 25° C.
Method: (§1) Protease inhibitory profiles of the Kunitz inhibitors were determined for a variety of proteases using the chromogenic substrates listed in Table 2 and compared to the inhibitory activity shown by the Kunitz-type inhibitor domain of the amyloid protein precursor (Example 2E) and bovine aprotinin (amino acids 1-58 as described by Norris et al., ibid.; which is incorporated by reference herein in its entirety).
MeO--Suc--Arg--Pro--Tyr--pNA
(§2) Inhibition assays were performed in microtiter wells in a total volume of 300 μl in 10 mM NaCl, 50 mM Tris-HCl (pH 7.4), 0.01% TWEEN80 (Polyoxyethylenesorbitan monoleate). The reactions were incubated at 25° C. for ten minutes after which the appropriate chromogenic substrate was added to the final concentration listed in Table 2 and the final reaction was incubated for thirty minutes at 25° C. Amidolytic activity was measured at 405 nm or by fluorescence Em at 460 nm. Percent inhibition was determined relative to reactions carried out in the absence of inhibitor representing 100% activity or 0% inhibition.

[1] = tested on: GL Kallikrein (glandular kallikrein); experiment: Protease inhibitory activity assay, glandular kallikrein; type: biochemical; conditions: 1 μM inhibitor; GL kallikrein 1 U/ml; H-D-Val-Leu-Arg-pNA 0.6 mM; 25° C.
Method: as §1
H--D--Val--Leu--Arg--pNA
Abbreviations in Table 2: rec. refers to recombinant, GL kallikrein refer
to glandular kallikrein, and PL kallikrein refers to plasma kallikrein.
as §2

For aprotinin [BPTI], the “% Inhibition, Chymotrypsin” value (Chymotrypsin) was 91.3% and the “% Inhibition, GI Kallikrein” value [1] was 91.4%.
